“Also recorded” adds a separate entry of the source.
Tests used:
[1] = Stability measurements by UV absorption in PBS; conditions: 200 mg/L, day 0-13
CC531 cells = experiment: Release and toxicity: MTT on cells incubated below drug-loaded hydrogel inserts; conditions: 10 wt % UPy-PEG10k hydrogel, total 1.8 mM
[2] = Release from 10 wt % bifunctional UPy-PEG10k hydrogel into PBS; type: physicochemical
Protocol: The UPy-PEG10k liquid carrier composition was prepared by dissolving the UPy-PEG10k powder in PBS at elevated pH by stirring at 70° C. for 1 h using a magnetic stirrer (e.g. 10 mg in 90 μl PBS pH 11.7 for a 10 wt % hydrogel). Afterwards the viscous solution was cooled to RT with a resulting pH of approximately 9.0. MPC was added from 30 mM DMSO stock solution to final concentrations of 3 mM or 0.3 mM, resulting in a maximum of 10% DMSO in the final product. The obtained composition is a liquid composition at this pH.
A liquid carrier composition comprising MPC was prepared as described in example 4. […] 100 μL of the solutions were transferred to Millicell hanging cell culture inserts (PIEP12R48/MCEP24H48) and immediately placed in a 24-well plate with 600 μL PBS per well. Contact with the neutral PBS through the membrane of the insert results in gelation of the liquid carrier, forming the hydrogel. At set time-points the PBS was refreshed and the removed PBS was analyzed for MMC or MPC content. Analysis was performed by measuring UV absorption and converted to concentration via predetermined standard curves. MPC gels were removed from the inserts after approximately two weeks by removing the membrane of the insert and gently pushing the still intact gel out. Gels were then dissolved in 1 mL basic PBS and after complete dissolution the concentration of MPC remaining in the gel was determined. […] On the contrary, MPC is released from the hydrogel in a controlled way over two weeks (FIG. 5B). […]. Release of MPC can be correlated to the erosion of the hydrogel. The initial goal to couple cholesterol to MMC to slow down the release from the hydrogel is accomplished hereby.

## Mitomycin-PEG24-Cholesterol [MPC]
[1]; pH 6.5, 37° C.
  Stability (UV absorption spectra): almost no degradation; also recorded: stable over time
[1]; pH 7.4, 4° C.
  Stability (UV absorption spectra): stable
[1]; pH 7.4, 37° C.
  Stability (UV absorption spectra): stable
CC531 cells
  Cytotoxicity after release from hydrogel, short term (immediately / first day): barely an effect
  Duration of cytotoxic effect after release from hydrogel: ≥ 18 days
CC531 cells; gels transferred to freshly seeded cells
  Cytotoxicity after release from hydrogel, long term (after a few days up to 18 days): long term cytotoxicity
[2]; 0.3 mM in gel, Gel Dissolved (after approximately two weeks, including compound remaining in gel)
  Release (%): 95.21%
[2]; 0.3 mM in gel, time 0.04 day
  Release (%): 3.28%
[2]; 0.3 mM in gel, time 0.21 day
  Release (%): 5.35%
[2]; 0.3 mM in gel, time 0.88 day
  Release (%): 8.33%
[2]; 0.3 mM in gel, time 5.83 day
  Release (%): 13.43%
[2]; 0.3 mM in gel, time 14.00 day
  Release (%): 26.12%
[2]; 3 mM in gel, Gel Dissolved (after approximately two weeks, including compound remaining in gel)
  Release (%): 93.33%
[2]; 3 mM in gel, time 0.13 day
  Release (%): 3.20%
[2]; 3 mM in gel, time 0.88 day
  Release (%): 6.63%
[2]; 3 mM in gel, time 2.92 day
  Release (%): 10.84%
[2]; 3 mM in gel, time 8.00 day
  Release (%): 18.31%
[2]; 3 mM in gel, time 15.83 day
  Release (%): 26.41%
[2]; 10 wt % UPy-PEG10k hydrogel
  Duration of controlled release from the hydrogel: two weeks
